From paper PMC3961306, “Comparison of the Cancer Gene Targeting and Biochemical Selectivities of All Targeted Kinase Inhibitors Approved for Clinical Use” (PLoS ONE, 2014)

Protein sequences, listed by entry. Tags and fused reporters are not part of them. Residues count along the entry.
UniProt Q8IU85, whole entry, stated change not applied: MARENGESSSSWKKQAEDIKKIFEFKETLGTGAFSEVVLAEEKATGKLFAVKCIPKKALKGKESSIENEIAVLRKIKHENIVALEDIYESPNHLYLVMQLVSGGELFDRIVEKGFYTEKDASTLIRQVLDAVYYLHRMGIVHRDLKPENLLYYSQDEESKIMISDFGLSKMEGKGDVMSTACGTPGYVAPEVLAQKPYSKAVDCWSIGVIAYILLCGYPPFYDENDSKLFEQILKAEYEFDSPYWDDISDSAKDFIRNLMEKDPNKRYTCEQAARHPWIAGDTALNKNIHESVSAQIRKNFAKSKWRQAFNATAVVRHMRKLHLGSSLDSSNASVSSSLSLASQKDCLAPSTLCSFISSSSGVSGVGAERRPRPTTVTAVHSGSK
UniProt P23458, whole entry, stated change not applied: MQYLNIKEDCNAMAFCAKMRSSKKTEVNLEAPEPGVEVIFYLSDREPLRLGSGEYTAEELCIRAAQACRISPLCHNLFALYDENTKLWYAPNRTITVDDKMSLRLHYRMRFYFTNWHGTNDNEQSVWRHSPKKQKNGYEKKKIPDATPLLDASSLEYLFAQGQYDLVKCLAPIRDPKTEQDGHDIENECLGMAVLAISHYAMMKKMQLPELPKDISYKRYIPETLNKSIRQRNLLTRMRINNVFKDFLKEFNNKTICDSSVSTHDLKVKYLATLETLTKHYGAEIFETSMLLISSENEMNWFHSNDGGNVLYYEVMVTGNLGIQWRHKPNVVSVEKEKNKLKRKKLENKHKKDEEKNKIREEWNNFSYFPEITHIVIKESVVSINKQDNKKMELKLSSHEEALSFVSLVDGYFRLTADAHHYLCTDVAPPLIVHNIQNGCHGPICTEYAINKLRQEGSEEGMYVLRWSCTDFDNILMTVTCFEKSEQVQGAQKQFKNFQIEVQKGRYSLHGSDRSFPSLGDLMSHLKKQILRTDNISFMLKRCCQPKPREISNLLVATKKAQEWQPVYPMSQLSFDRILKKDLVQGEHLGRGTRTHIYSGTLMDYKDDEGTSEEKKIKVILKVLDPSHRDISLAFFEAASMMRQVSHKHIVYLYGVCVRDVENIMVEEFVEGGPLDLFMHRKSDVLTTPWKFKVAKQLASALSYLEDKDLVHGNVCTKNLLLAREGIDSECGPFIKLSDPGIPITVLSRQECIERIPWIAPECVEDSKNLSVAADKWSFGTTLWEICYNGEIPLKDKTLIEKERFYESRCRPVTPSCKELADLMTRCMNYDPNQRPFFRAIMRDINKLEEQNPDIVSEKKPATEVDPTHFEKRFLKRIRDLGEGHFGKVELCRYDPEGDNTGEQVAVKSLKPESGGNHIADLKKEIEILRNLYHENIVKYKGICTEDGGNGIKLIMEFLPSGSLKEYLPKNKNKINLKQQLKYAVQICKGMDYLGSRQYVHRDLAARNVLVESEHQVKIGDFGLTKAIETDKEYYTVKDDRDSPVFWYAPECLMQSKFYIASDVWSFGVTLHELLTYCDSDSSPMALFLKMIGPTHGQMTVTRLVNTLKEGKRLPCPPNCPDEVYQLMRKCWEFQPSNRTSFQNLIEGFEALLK
UniProt P22455, 22-802 V550E: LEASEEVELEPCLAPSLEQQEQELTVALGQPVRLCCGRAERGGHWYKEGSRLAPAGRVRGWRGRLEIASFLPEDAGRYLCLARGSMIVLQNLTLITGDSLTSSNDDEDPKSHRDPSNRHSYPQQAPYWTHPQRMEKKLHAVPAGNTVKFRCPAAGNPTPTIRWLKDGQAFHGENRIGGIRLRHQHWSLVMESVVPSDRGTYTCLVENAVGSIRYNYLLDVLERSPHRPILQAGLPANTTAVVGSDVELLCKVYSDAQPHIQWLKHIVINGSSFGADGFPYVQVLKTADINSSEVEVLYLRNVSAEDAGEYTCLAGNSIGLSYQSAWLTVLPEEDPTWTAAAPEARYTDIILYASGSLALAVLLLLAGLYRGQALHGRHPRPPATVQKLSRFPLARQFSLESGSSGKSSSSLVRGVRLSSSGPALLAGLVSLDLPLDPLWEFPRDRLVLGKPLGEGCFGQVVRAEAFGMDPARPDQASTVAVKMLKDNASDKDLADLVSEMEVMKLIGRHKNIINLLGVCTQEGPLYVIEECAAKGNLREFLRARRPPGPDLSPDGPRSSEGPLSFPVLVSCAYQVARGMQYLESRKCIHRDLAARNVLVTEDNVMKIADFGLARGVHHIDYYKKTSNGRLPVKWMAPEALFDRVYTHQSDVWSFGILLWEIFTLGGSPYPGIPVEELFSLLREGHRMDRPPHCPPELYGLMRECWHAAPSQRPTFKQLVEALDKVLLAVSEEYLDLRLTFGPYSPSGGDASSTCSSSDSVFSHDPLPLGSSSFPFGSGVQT
UniProt P51617, whole entry, stated change not applied: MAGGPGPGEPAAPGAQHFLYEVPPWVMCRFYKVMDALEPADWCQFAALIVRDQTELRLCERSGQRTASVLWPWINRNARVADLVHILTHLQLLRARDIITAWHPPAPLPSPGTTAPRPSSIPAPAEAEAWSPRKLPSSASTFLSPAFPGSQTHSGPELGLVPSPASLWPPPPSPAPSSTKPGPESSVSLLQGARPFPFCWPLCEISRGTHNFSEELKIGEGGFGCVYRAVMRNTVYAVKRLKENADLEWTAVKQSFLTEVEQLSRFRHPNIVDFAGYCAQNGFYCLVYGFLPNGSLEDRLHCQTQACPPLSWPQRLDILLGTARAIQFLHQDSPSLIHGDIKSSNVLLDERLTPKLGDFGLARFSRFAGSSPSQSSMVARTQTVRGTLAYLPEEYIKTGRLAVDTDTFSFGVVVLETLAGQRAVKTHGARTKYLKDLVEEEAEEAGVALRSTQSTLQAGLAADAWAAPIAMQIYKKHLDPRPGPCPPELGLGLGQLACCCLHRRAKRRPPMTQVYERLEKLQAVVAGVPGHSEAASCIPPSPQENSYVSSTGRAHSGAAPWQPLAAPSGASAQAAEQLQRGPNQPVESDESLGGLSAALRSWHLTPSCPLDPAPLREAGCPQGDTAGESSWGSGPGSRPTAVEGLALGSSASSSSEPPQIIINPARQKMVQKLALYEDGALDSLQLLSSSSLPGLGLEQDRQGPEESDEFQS
UniProt P48729, whole entry, stated change not applied: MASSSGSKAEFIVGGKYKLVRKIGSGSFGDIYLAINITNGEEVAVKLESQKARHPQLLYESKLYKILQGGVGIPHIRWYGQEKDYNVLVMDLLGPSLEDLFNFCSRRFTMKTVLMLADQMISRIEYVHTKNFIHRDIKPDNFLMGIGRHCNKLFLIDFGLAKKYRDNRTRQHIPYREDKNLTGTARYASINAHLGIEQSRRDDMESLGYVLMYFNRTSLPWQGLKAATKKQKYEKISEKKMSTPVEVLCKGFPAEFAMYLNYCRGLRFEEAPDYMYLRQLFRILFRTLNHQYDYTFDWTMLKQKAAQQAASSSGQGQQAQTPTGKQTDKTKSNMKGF
UniProt P06239, whole entry, stated change not applied: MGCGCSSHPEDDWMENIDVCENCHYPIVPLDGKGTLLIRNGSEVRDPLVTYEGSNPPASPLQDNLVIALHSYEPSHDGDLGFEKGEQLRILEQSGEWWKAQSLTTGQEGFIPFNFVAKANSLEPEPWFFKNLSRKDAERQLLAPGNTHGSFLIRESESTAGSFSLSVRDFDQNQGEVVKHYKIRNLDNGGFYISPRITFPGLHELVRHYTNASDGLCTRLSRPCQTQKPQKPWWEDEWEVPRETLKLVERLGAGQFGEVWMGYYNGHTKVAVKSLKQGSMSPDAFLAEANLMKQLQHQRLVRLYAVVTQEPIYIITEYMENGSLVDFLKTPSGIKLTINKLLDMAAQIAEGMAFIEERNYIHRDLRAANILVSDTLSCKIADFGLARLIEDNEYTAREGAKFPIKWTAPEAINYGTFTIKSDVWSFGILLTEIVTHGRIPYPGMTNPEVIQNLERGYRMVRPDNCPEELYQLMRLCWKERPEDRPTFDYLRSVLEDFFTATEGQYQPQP
UniProt P22612, whole entry, stated change not applied: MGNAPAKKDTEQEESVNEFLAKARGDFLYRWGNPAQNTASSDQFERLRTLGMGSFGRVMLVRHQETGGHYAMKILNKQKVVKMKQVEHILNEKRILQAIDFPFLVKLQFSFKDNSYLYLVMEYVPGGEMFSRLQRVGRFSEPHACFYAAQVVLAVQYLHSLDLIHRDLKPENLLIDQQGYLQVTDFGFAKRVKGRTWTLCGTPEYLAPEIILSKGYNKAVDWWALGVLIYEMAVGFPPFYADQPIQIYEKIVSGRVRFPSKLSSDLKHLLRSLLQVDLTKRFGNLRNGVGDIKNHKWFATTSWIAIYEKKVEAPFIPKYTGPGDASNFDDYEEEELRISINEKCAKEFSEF
UniProt O94804, whole entry, stated change not applied: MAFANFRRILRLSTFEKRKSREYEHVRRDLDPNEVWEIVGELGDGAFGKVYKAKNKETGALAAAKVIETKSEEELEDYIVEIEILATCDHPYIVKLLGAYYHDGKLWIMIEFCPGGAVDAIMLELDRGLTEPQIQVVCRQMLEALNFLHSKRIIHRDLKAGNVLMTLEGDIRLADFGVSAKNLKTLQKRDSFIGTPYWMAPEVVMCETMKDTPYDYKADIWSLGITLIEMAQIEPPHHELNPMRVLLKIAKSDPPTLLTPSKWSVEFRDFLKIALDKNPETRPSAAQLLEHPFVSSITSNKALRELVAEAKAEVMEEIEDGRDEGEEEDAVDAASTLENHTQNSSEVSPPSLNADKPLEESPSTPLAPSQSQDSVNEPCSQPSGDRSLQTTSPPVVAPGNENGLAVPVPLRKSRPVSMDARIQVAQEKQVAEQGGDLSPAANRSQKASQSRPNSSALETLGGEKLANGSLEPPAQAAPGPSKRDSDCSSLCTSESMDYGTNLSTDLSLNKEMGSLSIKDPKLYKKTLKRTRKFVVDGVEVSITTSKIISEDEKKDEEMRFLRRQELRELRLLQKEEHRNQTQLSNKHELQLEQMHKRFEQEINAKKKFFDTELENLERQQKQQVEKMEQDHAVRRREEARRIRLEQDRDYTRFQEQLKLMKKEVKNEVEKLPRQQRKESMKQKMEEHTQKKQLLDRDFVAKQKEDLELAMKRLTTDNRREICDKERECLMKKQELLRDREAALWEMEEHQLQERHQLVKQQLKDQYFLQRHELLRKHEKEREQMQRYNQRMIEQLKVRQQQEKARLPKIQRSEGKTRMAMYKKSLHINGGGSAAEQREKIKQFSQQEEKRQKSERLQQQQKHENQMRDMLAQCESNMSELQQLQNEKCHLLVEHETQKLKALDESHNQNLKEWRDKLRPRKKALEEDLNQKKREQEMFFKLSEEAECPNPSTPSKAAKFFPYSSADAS
UniProt P08631, whole entry, stated change not applied: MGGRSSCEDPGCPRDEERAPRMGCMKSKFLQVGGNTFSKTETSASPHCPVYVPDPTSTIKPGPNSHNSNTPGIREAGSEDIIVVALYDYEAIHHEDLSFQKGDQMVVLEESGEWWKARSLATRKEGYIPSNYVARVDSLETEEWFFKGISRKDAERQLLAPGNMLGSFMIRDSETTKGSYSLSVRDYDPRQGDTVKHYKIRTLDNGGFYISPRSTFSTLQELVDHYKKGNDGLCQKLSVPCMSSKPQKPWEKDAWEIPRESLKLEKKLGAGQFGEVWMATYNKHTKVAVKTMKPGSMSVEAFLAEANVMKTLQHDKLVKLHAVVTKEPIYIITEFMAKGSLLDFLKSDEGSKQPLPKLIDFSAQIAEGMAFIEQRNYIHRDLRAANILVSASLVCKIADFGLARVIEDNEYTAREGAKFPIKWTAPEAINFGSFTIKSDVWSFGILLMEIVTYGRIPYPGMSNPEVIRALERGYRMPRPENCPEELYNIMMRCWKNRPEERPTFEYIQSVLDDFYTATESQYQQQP

Assays:
Assay in all cases: Kinase profiling in a biochemical assay panel (mobility shift assays and ELISA), %-inhibition at 1 μM; selectivity entropy
[1] = biological target: panel of more than 300 wild-type and mutant kinases (313 kinase panel) (Homo sapiens, UniProt P48730); settings: kinase CK1δ; 1 μM compound
[2] = biological target: panel of more than 300 wild-type and mutant kinases (313 kinase panel) (Homo sapiens, UniProt Q8IU85); settings: 1 µM
[3] = biological target: panel of more than 300 wild-type and mutant kinases (313 kinase panel) (Homo sapiens, UniProt Q14012); settings: 1 µM
[4] = biological target: panel of more than 300 wild-type and mutant kinases (313 kinase panel) (Homo sapiens, UniProt P23458); settings: 1 µM
[5] = biological target: panel of more than 300 wild-type and mutant kinases (313 kinase panel) (Homo sapiens, UniProt Q13554); settings: 1 µM
[6] = biological target: panel of more than 300 wild-type and mutant kinases (313 kinase panel) (Homo sapiens, UniProt P42685); settings: 1 µM
[7] = biological target: panel of more than 300 wild-type and mutant kinases (313 kinase panel) (Homo sapiens, UniProt P12931); settings: 1 µM
[8] = biological target: panel of more than 300 wild-type and mutant kinases (313 kinase panel) (Homo sapiens, UniProt P22455, V550E); settings: 1 µM
[9] = biological target: panel of more than 300 wild-type and mutant kinases (313 kinase panel) (Homo sapiens, UniProt P54646); settings: 1 µM
[10] = biological target: panel of more than 300 wild-type and mutant kinases (313 kinase panel) (Homo sapiens, UniProt P51617); settings: 1 µM
[11] = biological target: panel of more than 300 wild-type and mutant kinases (313 kinase panel) (Homo sapiens, UniProt P48729); settings: 1 µM
[12] = biological target: panel of more than 300 wild-type and mutant kinases (313 kinase panel) (Homo sapiens, UniProt P05129); settings: 1 µM
[13] = biological target: panel of more than 300 wild-type and mutant kinases (313 kinase panel) (Homo sapiens, UniProt P06239); settings: 1 µM
[14] = biological target: panel of more than 300 wild-type and mutant kinases (313 kinase panel) (Homo sapiens, UniProt Q13882); settings: 1 µM
[15] = biological target: panel of more than 300 wild-type and mutant kinases (313 kinase panel) (Homo sapiens, UniProt Q9Y2U5); settings: 1 µM
[16] = biological target: panel of more than 300 wild-type and mutant kinases (313 kinase panel) (Homo sapiens, UniProt P22612); settings: 1 µM
[17] = biological target: panel of more than 300 wild-type and mutant kinases (313 kinase panel) (Homo sapiens, UniProt Q13188); settings: 1 µM
[18] = biological target: panel of more than 300 wild-type and mutant kinases (313 kinase panel) (Homo sapiens, UniProt O94804); settings: 1 µM
[19] = biological target: panel of more than 300 wild-type and mutant kinases (313 kinase panel) (Homo sapiens, UniProt P00519, T315I); settings: 1 µM
[20] = biological target: panel of more than 300 wild-type and mutant kinases (313 kinase panel) (Homo sapiens, UniProt Q05513); settings: 1 µM
[21] = biological target: panel of more than 300 wild-type and mutant kinases (313 kinase panel) (Homo sapiens, UniProt P08631); settings: 1 µM
[22] = biological target: panel of more than 300 wild-type and mutant kinases (313 kinase panel) (Homo sapiens, UniProt O43781); settings: 1 µM
[23] = biological target: panel of more than 300 wild-type and mutant kinases (313 kinase panel) (Homo sapiens, UniProt Q9UM73, R1275Q); settings: 1 µM

CNC(=O)c1ccccc1Sc1ccc2c(/C=C/c3ccccn3)n[nH]c2c1 [axitinib]
%-inhibition, CK1δ [1]: -0.18%

COc1cc2ncnc(Nc3ccc(F)c(Cl)c3)c2cc1OCCCN1CCOCC1 [gefitinib]
%-inhibition, CaMK1δ [2]: -1.74%
%-inhibition, CaMK1α [3]: 2%
%-inhibition of JAK1 [4]: 4.61%
%-inhibition, CaMK2β [5]: -5%

C[C@@H]1CCN(C(=O)CC#N)C[C@@H]1N(C)c1ncnc2[nH]ccc12 [tofacitinib]
%-inhibition of FRK [6]: 0.0972%
%-inhibition of SRC [7]: 7%
%-inhibition of FGFR4(V550E) [8]: -0.834%
%-inhibition, AMPKα2/β1/γ1 [9]: -3.37%
%-inhibition of IRAK1 [10]: 7.45%
%-inhibition, CK1α [11]: -10%
%-inhibition of PKCγ [12]: 0.662%
%-inhibition of LCK [13]: 36%
%-inhibition, BRK [14]: -6%
%-inhibition of MAP3K2 [15]: 6%
%-inhibition of PKACγ [16]: -1.84%
%-inhibition of MST2 [17]: 3.29%
%-inhibition of LOK [18]: 2.46%
%-inhibition, ABL(T315I) [19]: 5.45%
%-inhibition of PKCζ [20]: 13%
%-inhibition of HCK [21]: 0.159%
%-inhibition of DYRK3 [22]: -8%
%-inhibition, ALK(R1275Q) [23]: 2.84%
